This is an account of results in patent US11066363B2, “Substituted 6,11-dihydro-5H-benzo[B]carbazoles as inhibitors of ALK and SRPK” (Dana-Farber Cancer Institute, Inc., priority 2015, dated 2021).

Amino acid sequences for entries named in this document (tags omitted).
UniProt Q96SB4, whole entry: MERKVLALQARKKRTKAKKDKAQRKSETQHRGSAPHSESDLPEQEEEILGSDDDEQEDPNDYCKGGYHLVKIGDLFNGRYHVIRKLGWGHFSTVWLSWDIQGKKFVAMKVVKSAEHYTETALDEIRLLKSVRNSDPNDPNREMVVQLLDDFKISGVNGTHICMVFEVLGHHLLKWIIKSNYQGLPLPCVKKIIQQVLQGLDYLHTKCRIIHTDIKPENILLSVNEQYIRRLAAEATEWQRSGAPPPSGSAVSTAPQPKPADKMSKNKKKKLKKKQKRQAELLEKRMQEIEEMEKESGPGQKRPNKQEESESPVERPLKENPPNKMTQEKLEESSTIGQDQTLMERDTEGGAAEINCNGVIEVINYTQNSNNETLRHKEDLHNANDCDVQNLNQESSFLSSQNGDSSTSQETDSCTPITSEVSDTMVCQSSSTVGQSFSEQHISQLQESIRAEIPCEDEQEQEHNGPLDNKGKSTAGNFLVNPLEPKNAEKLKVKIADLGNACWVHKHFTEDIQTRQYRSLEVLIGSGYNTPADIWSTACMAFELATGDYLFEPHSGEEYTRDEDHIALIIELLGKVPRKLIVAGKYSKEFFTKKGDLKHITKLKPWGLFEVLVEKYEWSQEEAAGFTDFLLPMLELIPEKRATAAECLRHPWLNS

In general, IC50 refers to the midpoint of a concentration-inhibition curve.

The experiment addresses SRPK1 (Homo sapiens (Human), UniProt Q96SB4). Kind of experiment: SRPK1 inhibitory activity. Type of experiment: biochemical.

Molecule `CCc1cc2c(cc1-c1cccc(S(=O)(=O)F)c1)C(C)(C)c1[nH]c3cc(C#N)ccc3c1C2=O` [Compound 37, 3-(3-cyano-9-ethyl-6,6-dimethyl-11-oxo-6,11-dihydro-5H-benzo[b]carbazol-8-yl)benzenesulfonyl fluoride] displayed an IC50 of 35.6 nM.
